Like-named read-outs stand apart in the source and are kept apart here.
What was measured:
[1] = molecular target: collagenase (Homo sapiens, UniProt P03956); test: Inhibition of collagenase cleavage of thioester peptide Ac-Pro-Leu-Gly-S-Leu-Leu-Gly-OC2H5
[2] = molecular target: stromelysin (Homo sapiens, UniProt P08254); test: Inhibition of stromelysin-mediated hydrolysis of substance P (HPLC-based assay); type: biochemical
[3] = molecular target: 72 kD Galatinase (gelatinase) (Homo sapiens, UniProt P08253); test: Inhibition of gelatinase-mediated cleavage of fluorogenic substrate Dnp-Pro-Leu-Gly-Leu-Trp-Ala-D-ArgNH2; details: read-out: Inhibition of 72 kD Galatinase pH = 7.5 (Ki)
[4] = read-out: Inhibition of Collagenase pH = 6.5 (IC50)
[5] = read-out: Inhibition of Stromelysin pH = 7.5 (IC50)

Sequences of proteins named here, by UniProt entry; tags and fusion partners are left off. Residues count along the entry.
UniProt P03956, 100-469 limits assumed: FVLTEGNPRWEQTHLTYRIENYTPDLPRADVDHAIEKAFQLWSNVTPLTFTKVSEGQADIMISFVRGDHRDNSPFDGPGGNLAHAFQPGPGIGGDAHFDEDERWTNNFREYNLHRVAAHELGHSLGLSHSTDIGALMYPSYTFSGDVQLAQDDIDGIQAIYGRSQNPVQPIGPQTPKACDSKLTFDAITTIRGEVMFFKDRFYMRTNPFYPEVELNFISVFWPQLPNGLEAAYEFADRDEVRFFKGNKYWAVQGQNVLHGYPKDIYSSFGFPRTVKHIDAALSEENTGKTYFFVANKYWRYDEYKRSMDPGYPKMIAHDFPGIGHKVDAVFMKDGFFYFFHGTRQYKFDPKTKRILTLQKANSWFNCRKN
UniProt P08254, 100-477 limits assumed: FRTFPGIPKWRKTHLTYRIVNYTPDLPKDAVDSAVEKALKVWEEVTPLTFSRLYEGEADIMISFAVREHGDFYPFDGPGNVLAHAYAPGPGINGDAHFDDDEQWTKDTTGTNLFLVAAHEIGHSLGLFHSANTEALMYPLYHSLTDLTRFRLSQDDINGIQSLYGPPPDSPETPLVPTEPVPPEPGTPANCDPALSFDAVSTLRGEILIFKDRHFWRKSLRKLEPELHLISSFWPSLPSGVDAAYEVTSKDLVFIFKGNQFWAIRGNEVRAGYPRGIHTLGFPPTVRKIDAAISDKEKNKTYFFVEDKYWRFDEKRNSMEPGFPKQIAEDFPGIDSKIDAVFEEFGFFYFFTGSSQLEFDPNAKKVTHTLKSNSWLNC
UniProt P08253, 110-660 limits assumed: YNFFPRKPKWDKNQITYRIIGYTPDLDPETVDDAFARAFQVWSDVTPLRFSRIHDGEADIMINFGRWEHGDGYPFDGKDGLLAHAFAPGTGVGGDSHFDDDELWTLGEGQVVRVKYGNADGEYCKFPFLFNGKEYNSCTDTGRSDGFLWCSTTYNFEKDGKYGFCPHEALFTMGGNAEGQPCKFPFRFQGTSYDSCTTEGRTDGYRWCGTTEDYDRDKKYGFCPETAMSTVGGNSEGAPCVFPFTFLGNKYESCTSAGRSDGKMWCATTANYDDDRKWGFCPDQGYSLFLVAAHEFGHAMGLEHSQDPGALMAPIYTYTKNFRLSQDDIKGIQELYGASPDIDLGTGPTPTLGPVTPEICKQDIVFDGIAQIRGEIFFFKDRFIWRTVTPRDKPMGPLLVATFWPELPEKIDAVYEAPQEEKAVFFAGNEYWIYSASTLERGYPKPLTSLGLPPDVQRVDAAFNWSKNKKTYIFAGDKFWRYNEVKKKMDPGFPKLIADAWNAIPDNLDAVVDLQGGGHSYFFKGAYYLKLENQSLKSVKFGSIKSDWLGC

Compound | IC50 [1, 4] | IC50 [2, 5] | IC50 ([1]; read-out: Inhibition of Collagenase pH = 6.5 (IC50), tested form: HCl) | IC50 ([2]; read-out: Inhibition of Stromelysin pH = 7.5 (IC50), tested form: HCl) | Ki [3]
CC(C)C[C@H](NC(=O)C(CCCc1ccccc1)N[C@H](CCCCN1C(=O)c2ccccc2C1=O)C(=O)O)C(=O)Nc1ccccc1 (stereo partly drawn) | 1400 nM | 190 nM |  |  | 
CC(C)C[C@H](NC(=O)C(CCc1ccccc1)N[C@H](CCCCN1C(=O)c2ccccc2C1=O)C(=O)O)C(=O)N[C@@H](Cc1ccccc1)C(N)=O (stereo partly drawn) | 4000 nM | 200 nM |  |  | 
CC(C)C[C@H](NC(=O)[C@H](CCc1ccccc1)NC(CCCCc1ccccc1)C(=O)O)C(=O)Nc1ccccc1 (stereo partly drawn) | 70 nM | 500 nM |  |  | 
CNC(=O)[C@H](CCCCN)NC(=O)C(CCc1ccccc1)N[C@H](CCCCN1C(=O)c2ccccc2C1=O)C(=O)O (stereo partly drawn) |  |  | 360 nM | 1100 nM | 
CC(C)C[C@H](NC(=O)C(CCc1ccccc1)NC(CCCc1ccccc1)C(=O)O)C(=O)Nc1ccccc1 (stereo partly drawn) | 2600 nM | 780 nM |  |  | 2100 nM
CC(C)C[C@H](NC(=O)C(CCc1ccccc1)N[C@H](CCCCNC(=O)OCC1c2ccccc2-c2ccccc21)C(=O)O)C(=O)Nc1ccccc1 (stereo partly drawn) | 1700 nM | 1400 nM |  |  | 
CNC(=O)[C@H](CC(C)C)NC(=O)C(CCc1ccccc1)N[C@H](CCCCN1C(=O)c2ccccc2C1=O)C(=O)O (stereo partly drawn) | 180 nM | 250 nM |  |  | 

Reference: patent US5932551A, “Substituted N-carboxyalkylpeptidyl derivatives as antidegenerative active agents” (Merck & Co., Inc., priority 1997, dated 1999)
